Data from patent US20260027101A1, “BACTERIAL TOPOISOMERASE INHIBITORS” (priority 2022, published 2026).

How the values were obtained:
[1] = system: Pseudomonas aeruginosa ATCC 27853; experiment: MIC, Pseudomonas aeruginosa ATCC 27853; assay type: cell-based; details: ATCC27853, read-out: MIC against Pseudomonas aeruginosa ATCC 27853, strain ATCC 27853
[2] = system: Staphylococcus aureus ATCC 29213; experiment: MIC, S. aureus ATCC 29213 (CLSI); assay type: cell-based; details: ATCC29213, read-out: MIC against Staphylococcus aureus ATCC 29213, strain ATCC 29213, triplicate
[3] = system: Acinetobacter baumanii ATCC 19606; experiment: MIC, Acinetobacter baumanii ATCC 19606; assay type: cell-based; details: Acinetobacter baumannii, ATCC19606, read-out: MIC against Acinetobacter baumanii ATCC 19606, strain ATCC 19606
[4] = system: Salmonella enterica ATCC 14028; experiment: MIC, Salmonella enterica ATCC 14028; assay type: cell-based; details: ATCC14028, read-out: MIC against Salmonella enterica ATCC 14028
[5] = system: Staphylococcus aureus CF isolate; experiment: MIC, S. aureus cystic fibrosis isolate (CLSI); details: read-out: MIC against Staphylococcus aureus CF isolate, isolate from individual with cystic fibrosis
[6] = system: Escherichia coli ATCC 25922; experiment: MIC, Escherichia coli ATCC 25922; assay type: cell-based; details: ATCC25922, read-out: MIC against Escherichia coli ATCC 25922, strain ATCC 25922

Compound | MIC [1] [µg/mL] | MIC [2] [µg/mL] | MIC [3] [µg/mL] | MIC [4] [µg/mL] | MIC [5] [µg/mL] | MIC [6] [µg/mL]
COc1ccc2ncc(F)c(CCN3CCC(C(O)C(O)c4ccc(C)cc4)CC3)c2n1 (single isomer, unassigned) [Example 13, 1-(1-(2-(3-fluoro-6-methoxy-1,5-naphthyridin-4-yl)ethyl)piperidin-4-yl)-2-(p-tolyl)ethane-1,2-diol] | > 64 |  |  |  |  | 
COc1ccc2ncc(F)c(CCN3CCC(/C=C/c4ccc(C)cc4)CC3)c2n1 [Example 1, (E)-7-fluoro-2-methoxy-8-(2-(4-(4-methylstyryl)piperidin-1-yl)ethyl)-1,5-naphthyridine] | > 64 | 0.25 to 0.5 (≈ 0.616 to 1.23 µM) | 64 (≈ 158 µM) | > 64 | 0.5 to 2 (≈ 1.23 to 4.93 µM) | 
COc1ccc2ncc(F)c(CCN3CCC([C@H](O)[C@@H](O)c4ccc(C)cc4)CC3)c2n1 [Example 7, (1S,2S)-1-(1-(2-(3-fluoro-6-methoxy-1,5-naphthyridin-4-yl)ethyl)piperidin-4-yl)-2-(p-tolyl)ethane-1,2-diol] | > 64 |  |  |  |  | 
COc1ccc2ncc(F)c(CCN3CCC(/C=C\c4ccc(C)cc4)CC3)c2n1 [Example 10, (Z)-7-fluoro-2-methoxy-8-(2-(4-(4-methylstyryl)piperidin-1-yl)ethyl)-1,5-naphthyridine] | > 64 | 4 to 8 (≈ 9.86 to 19.7 µM) |  | > 64 | 4 to 8 (≈ 9.86 to 19.7 µM) | 
COc1ccc2ncc(F)c(CCN3CCC(CCc4ccc(C)cc4)CC3)c2n1 [Example 19, 7-fluoro-2-methoxy-8-(2-(4-(4-methylphenethyl)piperidin-1-yl)ethyl)-1,5-naphthyridine] | > 64 |  |  | > 64 |  | 
COc1ccc2ncc(F)c(CCN3CCC(CCc4ccc5c(c4)OCCO5)CC3)c2n1 [Example 20, 8-(2-(4-(2-(2,3-dihydrobenzo[b][1,4]dioxin-6-yl)ethyl)piperidin-1-yl)ethyl)-7-fluoro-2-methoxy-1,5-naphthyridine] | > 64 |  |  | 64 (≈ 142 µM) |  | 
COc1ccc2ncc(F)c(CCN3CCC(CCc4ccc5c(c4)NC(=O)CO5)CC3)c2n1 [Example 21, 6-(2-(1-(2-(3-fluoro-6-methoxy-1,5-naphthyridin-4-yl)ethyl)piperidin-4-yl)ethyl)-2H-benzo[b][1,4]oxazin-3(4H)-one] | 32 (≈ 68.9 µM) |  |  |  |  | 
COc1ccc2ncc(F)c(CCN3CCC(C(O)Cc4ccc(C)cc4)CC3)c2n1 (stereo not shown) [Example 25, 1-(1-(2-(3-fluoro-6-methoxy-1,5-naphthyridin-4-yl)ethyl)piperidin-4-yl)-2-(p-tolyl)ethan-1-ol] | > 64 |  |  | 64 (≈ 151 µM) | 0.25 to 0.5 (≈ 0.59 to 1.18 µM) | 
COc1ccc2ncc(F)c(CCN3CCC(C(O)Cc4ccc5c(c4)OCCO5)CC3)c2n1 (stereo not shown) [Example 26, 2-(2,3-dihydrobenzo[b][1,4]dioxin-6-yl)-1-(1-(2-(3-fluoro-6-methoxy-1,5-naphthyridin-4-yl)ethyl)piperidin-4-yl)ethan-1-ol] | 64 (≈ 137 µM) |  |  |  |  | 
COc1ccc2ncc(F)c(CCN3CCC(C(N)Cc4ccc(C)cc4)CC3)c2n1 (stereo not shown) [Example 28, 1-(1-(2-(3-fluoro-6-methoxy-1,5-naphthyridin-4-yl)ethyl)piperidin-4-yl)-2-(p-tolyl)ethan-1-amine] |  |  | 16 (≈ 37.9 µM) |  |  | 16 (≈ 37.9 µM)
COc1ccc2ncc(F)c(CCN3CCC(C(N)Cc4ccc5c(c4)OCCO5)CC3)c2n1 (stereo not shown) [Example 29, 2-(2,3-dihydrobenzo[b][1,4]dioxin-6-yl)-1-(1-(2-(3-fluoro-6-methoxy-1,5-naphthyridin-4-yl)ethyl)piperidin-4-yl)ethan-1-amine] | 64 (≈ 137 µM) |  | 16 (≈ 34.3 µM) |  |  | 
COc1ccc2ncc(F)c(CCN3CCC(C(N)Cc4ccc5c(c4)NC(=O)CO5)CC3)c2n1 (stereo not shown) [Example 30, 6-(2-amino-2-(1-(2-(3-fluoro-6-methoxy-1,5-naphthyridin-4-yl)ethyl)piperidin-4-yl)ethyl)-2H-benzo[b][1,4]oxazin-3(4H)-one] | 64 (≈ 133 µM) |  |  | 32 (≈ 66.7 µM) | 8 (≈ 16.7 µM) | 8 (≈ 16.7 µM)

In brackets after ≈: the same amount, converted by molar mass.
